Assay results published in PubChem BioAssay AID625 (Vanderbilt High Throughput Screening Facility, 2007).
The list shows a part of the results, in another mix than the full data. Calls of active or inactive are those of the source.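 The calls were made as follows: active = fluorescence slope after compound addition differing from the mean of all tested samples at 99.7% confidence, mostly higher but some lower; inactive = the rest.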

Protein sequences, listed by entry. Tags and fused reporters are not part of them.
UniProt P08173, whole entry, looked up: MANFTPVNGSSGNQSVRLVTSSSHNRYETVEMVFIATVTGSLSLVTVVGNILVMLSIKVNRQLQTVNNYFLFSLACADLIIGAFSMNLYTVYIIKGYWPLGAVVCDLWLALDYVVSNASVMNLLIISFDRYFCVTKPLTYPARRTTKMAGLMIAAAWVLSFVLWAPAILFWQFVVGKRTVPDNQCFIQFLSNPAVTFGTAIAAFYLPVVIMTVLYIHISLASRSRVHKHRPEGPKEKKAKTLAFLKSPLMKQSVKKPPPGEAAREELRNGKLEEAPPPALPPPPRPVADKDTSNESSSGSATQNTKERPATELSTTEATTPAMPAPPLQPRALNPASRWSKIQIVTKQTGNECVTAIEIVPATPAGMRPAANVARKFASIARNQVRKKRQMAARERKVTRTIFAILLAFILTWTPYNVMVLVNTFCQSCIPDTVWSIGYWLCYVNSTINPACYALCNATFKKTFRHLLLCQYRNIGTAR

The compounds below were run against Muscarinic acetylcholine receptor M4 (Homo sapiens) (UniProt P08173) (assay: compounds altering M4/GIRK thallium flux, either direction, primary screen, M4 allosteric agonist project, cell-based, HEK293 M4/GIRK, BTC-AM (AID 625;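 also: thallium influx through GIRK channels coupled to M4 in HEK293 cells with BTC-AM dye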)). Details: at 10 µM, actives lie on both sides.
For Cc1cccc(OCC(=O)OC2CN3CCC2CC3)c1 (centres undefined), the fluorescence slope was inactive: 0.00453.
For Cc1nn(-c2ccccc2)c2c1P(=O)(N1CCOCC1)N(C)C(c1ccccc1)=N2 (centres undefined), the fluorescence slope was inactive: 0.00613.
COP1(=S)c2c(C)nn(CCC#N)c2N=C(c2ccc(F)cc2)N1C (centres undefined) was tested, and the fluorescence slope was inactive: 0.0103.
For O=C(COc1ccccc1)OC1CN2CCC1CC2 (centres undefined), the fluorescence slope was inactive: 0.00488.
